Test results from patent US12390423B2, “Avocatin B for the treatment of diseases and conditions” (priority 2019, dated 2025).

Conditions: skeletal muscle (soleus and gastrocnemius) and pancreas; printed as human subjects

avocatin B [AvoB]
Tissue accumulation following oral administration: accumulated in both skeletal muscle (soleus and gastrocnemius) and pancreas
